Results: patent US11926614B2, “1,2,4-triazole derivatives as tankyrase inhibitors” (priority 2018, dated 2024)
pIC50: −log10 of the molar value. Where two headings read alike, the source gives them in different places.

Chains of the proteins cited; added tags and fusions are not shown. Lines headed by an entry give the natural chain unless they say otherwise; changes in a name come on top.
UniProt Q9H2K2: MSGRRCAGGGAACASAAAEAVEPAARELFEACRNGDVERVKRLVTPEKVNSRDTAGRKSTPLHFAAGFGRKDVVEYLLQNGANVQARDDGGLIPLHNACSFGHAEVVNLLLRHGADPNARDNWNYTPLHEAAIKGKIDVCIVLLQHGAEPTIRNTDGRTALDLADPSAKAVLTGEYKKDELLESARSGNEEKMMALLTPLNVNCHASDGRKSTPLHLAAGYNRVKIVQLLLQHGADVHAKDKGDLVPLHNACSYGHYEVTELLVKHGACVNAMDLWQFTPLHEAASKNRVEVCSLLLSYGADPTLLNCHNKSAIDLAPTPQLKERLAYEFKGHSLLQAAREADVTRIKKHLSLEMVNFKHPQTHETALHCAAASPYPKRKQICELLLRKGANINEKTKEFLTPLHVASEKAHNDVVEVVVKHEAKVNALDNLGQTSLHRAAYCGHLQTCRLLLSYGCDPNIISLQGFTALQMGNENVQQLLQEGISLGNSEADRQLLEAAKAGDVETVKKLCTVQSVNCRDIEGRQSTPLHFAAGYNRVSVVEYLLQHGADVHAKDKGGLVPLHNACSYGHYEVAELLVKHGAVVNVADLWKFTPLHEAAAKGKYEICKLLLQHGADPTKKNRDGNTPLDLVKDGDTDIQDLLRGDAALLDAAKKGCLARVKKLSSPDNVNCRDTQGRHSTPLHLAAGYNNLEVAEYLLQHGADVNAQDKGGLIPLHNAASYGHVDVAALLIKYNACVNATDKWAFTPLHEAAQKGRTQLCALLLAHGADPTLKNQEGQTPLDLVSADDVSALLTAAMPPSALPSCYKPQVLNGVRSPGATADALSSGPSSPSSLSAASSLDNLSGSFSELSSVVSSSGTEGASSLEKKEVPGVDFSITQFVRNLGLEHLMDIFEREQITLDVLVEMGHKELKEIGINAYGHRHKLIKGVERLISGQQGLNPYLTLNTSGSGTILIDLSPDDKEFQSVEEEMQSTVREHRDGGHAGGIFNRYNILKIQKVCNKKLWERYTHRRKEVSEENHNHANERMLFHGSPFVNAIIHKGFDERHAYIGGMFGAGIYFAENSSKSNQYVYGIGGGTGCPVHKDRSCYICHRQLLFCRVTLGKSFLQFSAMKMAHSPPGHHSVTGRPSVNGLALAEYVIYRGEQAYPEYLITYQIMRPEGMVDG

Target: TNKS2 (Homo sapiens (Human), UniProt Q9H2K2)
Assay: Biochemical IC50 TNKS2
Source text: XLfit (idbs) was used to determine the IC50-values in inhibition experiments. The following formula was chosen to fit the data points (Langmuir Binding Isotherm): fit=((A+(B*x))+4(C−B)*(1−exp((−1*D)*x)))/D)), res=(y−fit)

[1] = read-out: Biochemical IC50 TNKS2

Compound | pIC50 | pIC50 [1]
[2H]C([2H])([2H])C([2H])([2H])Oc1ccc(-c2nnc([C@H]3C[C@H](NC(=O)c4ccccn4)C3)n2-c2ccccc2F)nc1 [Example 93, N-((1S,3r)-3-(5-(5-(ethoxy-d5)pyridin-2-yl)-4-(2-fluorophenyl)-4H-1,2,4-triazol-3-yl)cyclobutyl)picolinamide] | 8.17 | 
CCOc1ccc(-c2nnc([C@H]3C[C@H](NC(=O)c4ccccn4)C3)n2-c2ccccc2F)nc1 [Example 54, N-((1S,3r)-3-(5-(5-ethoxypyridin-2-yl)-4-(2-fluorophenyl)-4H-1,2,4-triazol-3-yl)cyclobutyl)picolinamide] |  | 8.15
CS(=O)(=O)c1ccc(-c2nnc([C@H]3C[C@H](NC(=O)c4cccc5cccnc45)C3)n2-c2ccccc2F)nc1 [Example 48] |  | 8.89
